scFv variants of Ab-14 (heavy chain) against a SARS-CoV-2 spike peptide

Values reported by Li et al. 2023, doi:10.1038/s41467-023-39022-2 (FLAb copy).

Antigen: PDVDLGDISGINAS, a 14-residue peptide of the SARS-CoV-2 spike HR2 region.

Parent scFv Ab-14: VH joined to VL by a 15-residue (Gly4Ser)3 linker. Changes lie in the heavy chain CDRs alone.
VH: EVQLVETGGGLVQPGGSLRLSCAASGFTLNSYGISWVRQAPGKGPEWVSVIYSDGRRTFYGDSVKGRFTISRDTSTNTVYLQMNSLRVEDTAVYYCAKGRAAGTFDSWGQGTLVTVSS
VL: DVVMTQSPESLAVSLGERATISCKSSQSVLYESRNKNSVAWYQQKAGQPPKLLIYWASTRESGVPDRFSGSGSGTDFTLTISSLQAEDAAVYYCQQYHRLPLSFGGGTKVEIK

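The variants were designed computationally from a first round of random CDR variants and then made and measured. Group labels follow the data file (Rand: our label for a block that the file lists under HC and that is probably the random mutants of the ten best first-round binders; En: ensemble of fine-tuned language models; HC: hill climbing; Gen: genetic algorithm; Gibbs: Gibbs sampling; a sequence that several methods proposed may carry one label only). In AlphaSeq, yeast of one mating type display the scFv and yeast of the other type display the target. The frequency of each diploid, read from paired DNA barcodes, reflects how well the two displayed proteins bind. Each replicate has its own calibration line, from reference interactions of the BCL2 family. There are six technical replicates.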

Variants are written as CDR1, CDR2 and CDR3 of the heavy chain (limits as in the source). Parent: GFTLNSYGIS, VIYSDGRRTFYGDSVK, GRAAGTFDS.
Variants here have more than six changes.
The read-out is the apparent dissociation constant on a log10 scale (nM): the lower, the stronger.
The mean shown is taken over the replicates in which the pair was detected.
A pair that was not seen in any replicate is written "no signal"; this usually means weak binding, but a binder can also be missed.

Variant GFDLNEYGIS | VIYADGVRTAYQDSVK | GNVAGTFDV [En_Gen] showed -0.64 (6 of 6 replicates). Variant GADLNEYGIS | VIYADGRSVYYANSFK | GHNAGTFNS [En_Gibbs] gave no signal (0 of 6 replicates). Variant GKSLDEYGIS | VIYADGLRSVYANNVK | GQFDDAMDL [En_Gibbs] showed 1.41 (1 of 6 replicates). With GFDINEYGIS | VIYADGMRTFYADSVK | GQTAGTFDV [En_HC] the result was -0.56 (6 of 6 replicates). Variant GFDLNEYGIS | VIYADGKRTVYADSVK | GQVAGTFDV [En_Gen] showed -0.61 (6 of 6 replicates).

With GFDLDEYGIS | VIYADGVRTAYADSVK | GTNAGTFDI [En_Gen] the result was -0.51 (6 of 6 replicates). Variant GFDLNEYGIS | VIYADGMRTAYADSVK | GEVAGTFDE [En_Gen] showed 0.10 (6 of 6 replicates). With GFDLNEYGIS | VIYADGRRTAYKDSVK | GTNAGTFDQ [En_HC] the result was -0.52 (6 of 6 replicates). Variant GFDLEEYGIS | VIYADGQRTAYADSVK | GNNAGTFDV [En_Gen] showed 0.03 (6 of 6 replicates). With GFDLQEYGIS | VIYADGQRTKVADNVK | GNVTFTAGV [En_Gibbs] the result was no signal (0 of 6 replicates).

For GFDLNEYGIS | VIYADGSRTFYADSVK | GNNAGTFDV [En_Gen], the assay gave 0.02 (6 of 6 replicates). Variant GFDLNEYGIS | VIYADGMRKAYADSVK | GEVAGTFDT [En_Gen] gave -0.36 (1 of 6 replicates). Variant GFDLDEYGIS | VIYADGMRTAYIDSVK | GENAGTFDL [En_Gen] gave -0.19 (6 of 6 replicates). Variant GFDLNEYGIS | VIYADGMRTAYTDKVK | GNVAGTFDV [En_Gen] showed -0.73 (1 of 6 replicates). For GFNLDEYGIS | VIYADGRRTFYADSVK | GSHAGTFDT [En_HC], the assay gave -0.82 (6 of 6 replicates).

Variant GFDLNEYGIS | VIYADGMRTYYSDSVK | GNVAGTFDV [En_Gen] gave -0.74 (6 of 6 replicates). Variant GFDLNEYGIS | VIYADGLRTAYADDVK | GENAGTFDM [En_Gen] showed -0.12 (6 of 6 replicates). For GFDLEDYGIS | VIYADGMRTFYADSVK | GNVAGTFDV [En_HC], the assay gave 0.18 (6 of 6 replicates). With GFDLNEYGIS | VIYADGMRTAYIDSVK | GNVAGTFDM [En_Gen] the result was -0.25 (6 of 6 replicates). With GFDINEYGIS | VIYADGMRKAVEQNVK | GENSRSVVI [En_Gibbs] the result was no signal (0 of 6 replicates).

With GFDINEYGIS | VIYADGQRTFYADSVK | GNQGGTFDL [En_HC] the result was 0.34 (6 of 6 replicates). With GFDLNEYGIS | VIYADGRRTAYTDSVK | GQVAGTFDS [En_HC] the result was -0.52 (6 of 6 replicates). For GFDLNEYGIS | VIYADGKRTAYADSVK | GEVAGTFDN [En_Gen], the assay gave -0.48 (5 of 6 replicates). With GFDLNEYGIS | VIYADGMRTAYADDVK | GEVAGTFDA [En_Gen] the result was -0.68 (6 of 6 replicates). For GTDLEEYGIS | VIYADGMRAAYANNVK | GVKGINVTY [En_Gibbs], the assay gave no signal (0 of 6 replicates).

Variant GFDLNEYGIS | VIYADGRRTAYADSVK | GQVAGTFDQ [En_Gen] showed -0.65 (6 of 6 replicates). For GFDLDEYGIS | VIYADGMRTAYSDSVK | GNNAGTFDI [En_Gen], the assay gave 0.08 (6 of 6 replicates). Variant GADLQEYGIS | VIYADGNRYAYANSVK | GTQGGSLIV [En_Gibbs] showed 1.64 (2 of 6 replicates). For GFDLNEYGIS | VIYADGKRTSYADSVK | GNVAGTFDI [En_Gen], the assay gave 0.00 (6 of 6 replicates). Variant GFTSNSREIS | VIYADGRRTGYGDSTK | GRAAGTNKS [Rand] gave no signal (0 of 6 replicates).

Variant GFDFDEYGIS | VIYADGIRQFYQDKVK | GEVTGMFDT [En_Gibbs] gave no signal (0 of 6 replicates). With GFDLDEYGIS | VIYADGKRTAYADSVK | GGNAGTFDL [En_Gen] the result was -0.30 (6 of 6 replicates). With GQDLNEYGIS | VIYADGLRTAYTENVK | GNQSDFDSG [En_Gibbs] the result was no signal (0 of 6 replicates).

Repeated from above, the 3 best binders with a signal in all replicates:

The variant GFNLDEYGIS | VIYADGRRTFYADSVK | GSHAGTFDT [En_HC] showed -0.82 (6 of 6 replicates).
The variant GFDLNEYGIS | VIYADGMRTYYSDSVK | GNVAGTFDV [En_Gen] showed -0.74 (6 of 6 replicates).
The variant GFDLNEYGIS | VIYADGMRTAYADDVK | GEVAGTFDA [En_Gen] showed -0.68 (6 of 6 replicates).

The parent sequence was in this pool as ten entries: three were never detected, three once, and four in most replicates, with averages from 0.34 to 2.37.
Nonspecific signal, from three strains lacking the peptide, appeared in 1% of pairings of all heavy chain designs, centred on 2.08 (5% of these signals below 0.84); values are not corrected for it.
The range of this assay differs from that of the first round, and the authors advise against merging the two.
The authors averaged sequences with at least three values out of six and counted those with two or fewer as poor binders.